# Antibody variant affinities, Ab-14 heavy chain, assay B

The measurements come from Li et al. 2023 (doi:10.1038/s41467-023-39022-2) through the FLAb antibody collection.

All variants were tested on one target, the spike HR2 peptide PDVDLGDISGINAS (SARS-CoV-2).

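Designed CDR sequences, proposed from the first random library and measured here. Their group label is 14H_GP_Gen (GP: Gaussian process model; Gen: genetic algorithm; a sequence that several methods proposed may carry one label only). In AlphaSeq, yeast of one mating type display the scFv and yeast of the other type display the target. After mating in shaken culture at 30 °C for 16 h, diploids were selected and their barcode pairs sequenced. Scores were corrected for input abundance and mapped to Kd with protein pairs of known affinity run in the same pool. The assay was run in six technical replicates.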

The variants keep the light chain, the linker and the frameworks of Ab-14 (scFv order VH, a (GGGGS)3 linker, VL).
VH: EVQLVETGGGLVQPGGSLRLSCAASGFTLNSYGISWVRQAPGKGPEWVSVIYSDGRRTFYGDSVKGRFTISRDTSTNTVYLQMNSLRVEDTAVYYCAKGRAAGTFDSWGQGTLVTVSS
VL: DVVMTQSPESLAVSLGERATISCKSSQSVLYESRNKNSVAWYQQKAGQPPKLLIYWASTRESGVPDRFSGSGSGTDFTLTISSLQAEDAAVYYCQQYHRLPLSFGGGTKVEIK

The parent's heavy chain CDRs are GFTLNSYGIS, VIYSDGRRTFYGDSVK, GRAAGTFDS; each variant's own CDRs replace them letter for letter. Affinities are written as log10 Kd with Kd in nM; a lower number is a better binder. A mean of the replicates is given; it leaves out those without a signal. "nd" means that the variant was in the library but no mating with the target was seen in that replicate; the authors take this as a sign of poor binding, and no number exists. The parent sequence was in this pool as ten entries: three were never detected, three once, and four in most replicates, with averages from 0.34 to 2.37.

Variant GFDLNSYGIS | VIYSDGRRTFYGDRVK | GNAAGTFDS showed 0.27, nd, 0.59, 1.07, 0.09, 0.38 (mean 0.48; controls 0 of 18).
Variant GFDLNSYGIS | VIYSDGRRTFYIDAVK | GRTAGTFDS showed 0.54, 0.47, 0.62, 1.21, 0.32, 0.45 (mean 0.60; controls 0 of 18).
Variant GFSLNEYGIS | VIYSDGRRTFYGDQVK | GRTAGTFDK showed 1.10, 0.15, -0.07, -0.04, 0.35, 0.34 (mean 0.31; controls 0 of 18).
Variant GFDLNSYGIS | VIYSDGRRTFYADRVK | GREAGTFDS showed 0.95, 1.43, 1.03, 1.12, 0.43, 0.93 (mean 0.98; controls 1 of 18).
Variant GFDLNSYGIS | VIYSDGRRTAYGDSVK | GRAAGTFDQ showed 0.68, 0.79, 0.73, 0.46, 0.88, 0.51 (mean 0.68; controls 0 of 18).
Variant GFDLNSYGIS | VIYSDGRRTFYGDQVK | GWTAGTFDS showed 0.59, 0.06, 0.38, 0.05, 0.30, 0.59 (mean 0.33; controls 0 of 18).
Variant GFNLNSYGIS | VIYSDGRRTFYGDSVK | GNEAGTFDS showed 0.43, 0.02, 0.16, 0.27, 0.11, 0.35 (mean 0.22; controls 1 of 18).
Variant GFDLNSYGIS | VIYSDGRRTFYADSVK | GKAAGTFDK showed nd, 0.64, 0.70, 0.45, 1.20, 0.83 (mean 0.76; controls 0 of 18).
Variant GFDLNSYGIS | VIYSDGRRTAYGDSVK | GRLAGTFDS showed -0.99, nd, -0.11, -1.25, 0.65, -0.68 (mean -0.48; controls 0 of 18).
Variant KFDLNSYGIS | VIYSDGKRTFYGDSVK | GRTAGTFDS showed 0.81, 0.35, 0.45, 0.44, 0.19, 0.33 (mean 0.43; controls 0 of 18).
Variant GFELNSYGIS | VIYSDGRRTFYGDNVK | GRNAGTFDS showed 0.00, 0.36, 0.47, 0.42, 1.59, 0.75 (mean 0.60; controls 0 of 18).
Variant GFDLNSYGIS | VIYSDGRRTFYGDRVK | GRTAGTFDA showed -0.18, 0.14, 0.12, -0.21, 0.56, 0.10 (mean 0.09; controls 0 of 18).
Variant MFDLNSYGIS | VIYSDGRRTFYGDSVK | GKEAGTFDS showed 1.11, 1.17, 1.03, 0.73, 1.34, 1.20 (mean 1.10; controls 1 of 18).
Variant GFELNEYGIS | VIYSDGRRTFYGDSVK | GRVAGTFDT showed 0.24, -0.15, -0.16, -0.16, 0.46, -0.25 (mean 0.00; controls 1 of 18).
Variant GFDLNSYGIS | VIYSDGRRTFYSDSVK | GKTAGTFDS showed 0.21, -0.57, 0.27, -0.07, 0.21, -0.11 (mean -0.01; controls 0 of 18).
Variant KFSLNSYGIS | VIYSDGRRTFYGDSVK | GREAGTFDS showed nd, nd, nd, nd, nd, nd (controls 0 of 18).
Variant GFELNSYGIS | VIYSDGRRTFYGDSVK | GHQAGTFDS showed 1.15, 0.84, 1.01, 1.21, 0.48, 1.15 (mean 0.97; controls 0 of 18).
Variant GFELNSYGIS | VIYADGRRTFYGDSVK | GKAAGTFDW showed nd, 2.05, 0.91, 1.03, 0.94, 1.11 (mean 1.21; controls 0 of 18).
Variant GFNLNSYGIS | VIYSDGRRTFYGDQVK | GRQAGTFDS showed nd, 0.71, nd, 0.94, 0.96, 0.89 (mean 0.88; controls 0 of 18).
Variant GFELNSYGIS | VIYSDGRRTFYSDSVK | GREAGTFDS showed 0.38, 0.56, 0.27, 0.07, 0.30, 0.47 (mean 0.34; controls 1 of 18).
Variant GFSLNQYGIS | VIYSDGRRTAYGDSVK | GRAAGTFDS showed 0.39, 0.38, -0.01, -0.11, 0.25, 0.17 (mean 0.18; controls 0 of 18).
Variant GFELNSYGIS | VIYSDGRRTFYGDDVK | GRTAGTFDS showed 0.37, 1.49, 0.77, 1.27, -0.04, 0.86 (mean 0.79; controls 0 of 18).
Variant GFHLNSYGIS | VIYSDGRRTFYSDSVK | GKQAGTFDS showed nd, nd, 1.24, nd, nd, nd (controls 0 of 18).
Variant GFDLNSYGIS | VIYSDGRRTFYIDAVK | GNAAGTFDS showed 0.25, 0.35, -0.04, 0.00, 0.22, 0.31 (mean 0.18; controls 1 of 18).
Variant GFDLNSYGIS | VIYSDGRRTFYQDSVK | GRIAGTFDS showed 0.32, -0.42, -0.25, -0.22, 0.59, -0.11 (mean -0.01; controls 0 of 18).
Variant GFSLNEYGIS | VIYSDGRRTFMGDSVK | GRTAGTFDS showed 0.49, -0.08, 0.16, -0.11, 0.05, 0.42 (mean 0.15; controls 0 of 18).
Variant GFDLNSYGIS | VIYSDGIRTFYGDSVK | GRTAGTFDS showed -0.01, -0.05, 0.21, 0.30, 0.31, 0.44 (mean 0.20; controls 0 of 18).
Variant GFELNSYGIS | VIYSDGMRTFYADSVK | GRTAGTFDS showed 0.91, 0.26, 0.35, -0.07, -0.04, 0.19 (mean 0.27; controls 0 of 18).
Variant GFELNEYGIS | VIYSDGRRTFYGDSVK | GQTAGTFDT showed -0.51, -0.38, -0.10, -0.86, -0.77, -0.59 (mean -0.54; controls 0 of 18).
Variant DFSLNSYGIS | VIYSDGRRTAYGDSVK | GRAAGTFDS showed 0.73, 0.69, 0.98, 0.29, 0.71, 0.42 (mean 0.63; controls 0 of 18).
Variant GFSLNEYGIS | VIYSDGRRTFYGDMVK | GRTAGTFDS showed 0.40, 1.46, 0.58, 0.84, 0.61, 0.11 (mean 0.67; controls 0 of 18).
Variant GFTLNMYGIS | VIYSDGKRTFYGDSVK | GRTAGTFDS showed nd, 1.16, 1.75, nd, 0.95, nd (mean 1.29; controls 0 of 18).
Variant GFDLNSYGIS | VIYSDGRRTFYGDKVK | GEAAGTFDS showed 0.82, 0.27, 0.51, 1.33, 0.72, 1.23 (mean 0.81; controls 0 of 18).
Variant KFNLNSYGIS | VIYSDGRRTFYKDSVK | GRTAGTFDS showed nd, nd, nd, nd, nd, nd (controls 0 of 18).

Excerpt, the final 3 entries:

| CDR-H1 | CDR-H2 | CDR-H3 | log10 Kd (nM) by replicate | mean, log10 nM | control signals |
|---|---|---|---|---|---|
| GFTLNMYGIS | VIYSDGKRTFYGDSVK | GRTAGTFDS | nd, 1.16, 1.75, nd, 0.95, nd | 1.29 | 0 of 18 |
| GFDLNSYGIS | VIYSDGRRTFYGDKVK | GEAAGTFDS | 0.82, 0.27, 0.51, 1.33, 0.72, 1.23 | 0.81 | 0 of 18 |
| KFNLNSYGIS | VIYSDGRRTFYKDSVK | GRTAGTFDS | nd, nd, nd, nd, nd, nd | nd | 0 of 18 |

A sequence measured in both rounds can read differently, since the two assays cover different ranges. The authors averaged sequences with at least three values out of six and counted those with two or fewer as poor binders. Three control strains display no target. For all heavy chain designs, 1% of the pairings with them gave a signal, with a median of 2.08 and one signal in twenty below 0.84, so weak values seen in few replicates may be background. The control count says in how many pairings with the empty strains this scFv gave a signal.